From PubChem BioAssay
This is a sample that favours compounds with a hit; in the whole collection about 0.24% have one here.
TSG101-PTAP inh: blocks PTAP/TSG101 interaction to inhibit HIV-1 budding. Q99816. Potency, µM (titrated, usually from 115 µM), without a hit: at the top dose activity change, negative = inhibition, most hits filed as inhibitors. Fluorescence polarization, FITC-PTAP peptide / Tsg101 binding. 340,000 tested, under 10 active. AID 493005; active = well fitted inhibition curve with a large enough effect in the main read-out, with a control signal flat, not every such curve was filed as active; inconclusive = small, poorly fitted or top-dose-only effect, or effect the other way, or a change in a side signal; inactive = no such curve, though single readings can be large or run the other way; note: potency is the fitted concentration of half-maximal effect; % of control where 0% means no effect
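FP read-out: FITC-PTAP peptide, 50 nM final, binding Tsg101 binding domain, 10 uM final; 20 min, r.t.; 10 mM HEPES pH 7.5, 0.15 M NaCl, 0.01% Tween 20, 3 mM EDTA, 0.1 mM TCEP.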
USP2a block: USP2a (human) protease inhibition | 330,000 compounds, 0.01% hits | AID 463254 | Potency, µM (top dose mostly 38.3 µM), without a hit: top-dose activity change, negative = inhibition, actives largely listed as inhibitors | USP2 core, Ub-CHOP2 coupled fluorogenic reporter, 485/531 | O75604;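 note: potency is the fitted concentration of half-maximal effect; plate controls were DMSO wells for no effect and full inhibition by NEM control for full effect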
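Deubiquitinase activity read as fluorescence (485/531 nm) after Ub-CHOP2 cleavage activates the enterokinase reporter on its substrate; USP2 core 10nM, Ub-CHOP2 and substrate 25nM each, 30min compound preincubation then 60min RT; data normalized to NEM, curves fitted.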
GLS inh: blocks human kidney-isoform glutaminase activity | GLS enzymatic activity, qHTS titration | Potency, µM (series often up to 45.5 µM), for the others: top-dose activity change, negative = inhibition, usual class: inhibitors | 410,000 compounds, 0.21% hits; note: potency is the fitted concentration of half-maximal effect; % is set by controls: 0 for no effect and ±100 for the full control effect
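Enzyme dispensed in phosphate buffer (45 mM, pH 8.2, 0.02% Tween-20), compounds pinned in, then 1 mM L-glutamine solution and the glutamate oxidase–HRP–Amplex Red mix added; fluorescence read immediately and again after 30 min at room temperature.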
Eya2 inh: Eya2 (human) phosphatase inhibition | O00167 | recombinant Eya2, OMFP fluorescence dephosphorylation (OMFP is methylfluorescein phosphate) | Potency, µM (top dose mostly 76.9 µM), for inactives: at the highest dose activity, negative = inhibition, actives largely listed as inhibitors | 330,000 compounds, 0.006% hits; note: potency is the fitted concentration of half-maximal effect; % is set by controls: 0 for no effect and ±100 for the full control effect
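Eya2 protein (added as 0.2 uM solution) was preincubated with compound for 10 min at ambient temperature in 50 mM HEPES pH 7.5, 50 mM NaCl, 5 uM MgCl2, 0.05% BSA, 1 mM DTT. OMFP (added at 50 uM) then reacted 10 min; fluorescence read at 485/525 nm.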
PTHR1 agonist: PTHR1 (human) receptor agonism; Q03431; HEK293 GP2 PTHR1 cells, GloSensor cAMP luminescence, 1 h; Potency, µM (doses to about 115 µM), inactives show at the highest dose activation, usual class: activators; 410,000 compounds, 0.075% hits; AID 743266; note: potency is the fitted concentration of half-maximal effect; nearly all actives have a fitted effect of over 55% in size
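HEK-293-derived GP2 cells expressing PTHR1 and a GloSensor cAMP reporter, 3,000/well, plated overnight, given luciferin plus IBMX (each 0.5 mM as added) for 1 h at 37 °C, then compound for 1 h at 37 °C. Luminescence was read after 15 min at room temperature.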
miR-21 reporter: miR-21 reporter, rising signal. 340,000 tested, under 10 active. Potency, µM (highest dose often 38.3 µM), for the others: at the highest dose reporter change, positive = more light. HeLa miR-21 FLuc reporter, luciferase, 48 h. AID 2288; active = well fitted rising curve with a large enough effect; inconclusive = small, poorly fitted or top-dose-only effect; inactive = no such curve, though single readings can be large or run the other way;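 further: % of control where 0% means no effect; miR-21 action dims this reporter so a rising signal means less miR-21 action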
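HeLa cells endogenously expressing miR-21, stably carrying CMV-driven firefly luciferase with a downstream miR-21 binding site, 2000 cells/well. Titrations up to approximately 40 uM, 48 hours; luciferase luminescence read.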
* hit, by the source's call; i = inactive; ? = inconclusive; / = not tested or not shown; [ ] = another dose, or the depositor's remark. Unless noted, calls come from the whole dose curve; as a rule, active = well fitted curve in the direction sought with a large enough effect; inconclusive = small, poorly fitted or top-dose-only effect, or another doubt; inactive = no such curve, though single readings can be large; an effect the other way counts as inactive or inconclusive.

structure | miR-21 reporter | PTHR1 agonist | GLS inh | Eya2 inh | TSG101-PTAP inh | USP2a block
CC(C)c1ccc(Nc2c(-c3ccc(N(C)C)cc3)nc3cnccn23)cc1 | 0% | -64% | 6% | / | / | /
COc1cccc(N2CCN(C(=O)C3Cc4ccccc4N3C(C)=O)CC2)c1 (configuration not stated) | -1% | -1% | 5% | / | / | /
O=C(O)CN1C(=O)/C(=C/c2ccc(N3CCCCC3)o2)SC1=S | 1% | -18% | 11µM* | ? | 25% | 13%
COC(=O)CN1C(=O)S/C(=C/c2ccc(N3CCCCC3)o2)C1=O | -12% | -59% | -23% | ? | ? | ?
CC1(C)CCCN(C(=O)c2coc(=O)c(Br)c2)C1 | 0% | i | 10µM* | 6% | -1% | -1%
Cc1ccc(C(=O)c2oc3ccccc3c2NC(=O)c2nc(S(C)(=O)=O)ncc2Cl)cc1F | -8% | i | 2% | / | / | /
CCN(CC)c1ccc(C(=C2C=CC(=[N+](CC)CC)C=C2)c2ccccc2)cc1 | / | -38% | 6.3µM* | / | -2% | /
Cc1ccc(CNC(=O)c2cc3c(=O)n(Cc4cccnc4)ccc3nc2C)cc1 | 10% | i | -1% | / | / | /
CC(C)Oc1ccc(-c2nc3c(C#N)c[nH]n3c2NC2CCCCC2)cc1 | -19% | i | ? | / | / | /
COc1ccc(-c2nc3c(C#N)c[nH]n3c2NC2CCCC2)c(OC)c1 | 18% | -2% | 13µM* | / | / | /
CCOc1ccc(-c2nc3c(C#N)c[nH]n3c2NC2CCCC2)cc1 | 2% | i | 14µM* | / | / | /
O=C1SC(SCc2ccccc2)=N/C1=C\c1ccco1 | -3% | 0.32µM* | 10% | / | -12% | /
O=C1SC(SCc2ccccc2)=N/C1=C\c1ccc(C(=O)O)cc1 | 8% | 5% | -23% | 9% | 0% | -2%
O=C1CCCC2=C1C(c1ccco1)Nc1ccc3ccccc3c12 (configuration not stated) | -9% | -28% | 11µM* | -11% | -5% | ?
O=C(N/N=C/c1cccc(F)c1)c1cc(-c2ccco2)nc2ccccc12 | -2% | -6%[57.5 µM] | 13µM* | 12% | -4% | ?
COc1cc(/C=N/NC(=O)c2cc(-c3ccco3)nc3ccccc23)cc(OC)c1O | 0% | -10% | 10% | ? | -10% | 0%
CN(CC(=O)Nc1c(Cl)cccc1Cl)C(=O)c1ccccc1SCC(=O)N1CCCC1 | -2% | -7% | 16µM* | 0% | 0% | 1%
COc1ccc(NC(=O)c2cnc3cc(C)ccn3c2=O)c(OC)c1 | -8% | -7% | -5% | / | / | /
Cc1ccccc1N=Nc1ccc(O)c2ncccc12 | ? | -57% | 11% | 11% | -2% | -1%
O=S(=O)(O)c1cccc2c(N=Nc3ccc(O)c4ncccc34)cccc12 | 6% | i | 8.9µM* | -9% | -3% | -9%
Cc1cc2c(cc3c(SCc4ccccc4Cl)nnc(C)n32)o1 | -39% | i | 5% | / | / | /
CCC(=O)NC1=C(Nc2ccc(N)cc2)C(=O)c2ccccc2C1=O | -21% | i | 7.1µM* | -12% | -6% | 1%
COc1cccc(CNc2ccc3[nH]c(=O)[nH]c3c2)c1OCc1ccccc1 | 17% | -23% | 16µM* | 8% | -6% | -2%
CCCCCCCC(=O)CC[C@H]1[C@@H](C/C=C/CCCC(=O)OC(C)C)[C@@H](O)C[C@H]1O | / | / | -4% | / | / | /

One compound at a time, from the list above. Order of values: miR-21 reporter | PTHR1 agonist | GLS inh | Eya2 inh | TSG101-PTAP inh | USP2a block
O=S(=O)(O)c1cccc2c(N=Nc3ccc(O)c4ncccc34)cccc12 across the screens: 6% | i | 8.9µM* | -9% | -3% | -9%
CCCCCCCC(=O)CC[C@H]1[C@@H](C/C=C/CCCC(=O)OC(C)C)[C@@H](O)C[C@H]1O across the screens: / | / | -4% | / | / | /
Cc1ccccc1N=Nc1ccc(O)c2ncccc12 across the screens: ? | -57% | 11% | 11% | -2% | -1%
COc1cccc(CNc2ccc3[nH]c(=O)[nH]c3c2)c1OCc1ccccc1 across the screens: 17% | -23% | 16µM* | 8% | -6% | -2%
Cc1cc2c(cc3c(SCc4ccccc4Cl)nnc(C)n32)o1 across the screens: -39% | i | 5% | / | / | /

Following part.
structure | miR-21 reporter | PTHR1 agonist | GLS inh | Eya2 inh | TSG101-PTAP inh | USP2a block
Cc1cc(NS(=O)(=O)c2ccc(NC(=O)/C=C/c3ccc(C)o3)cc2)nc(C)n1 | 5% | -10% | 10µM* | 8% | -4% | 4%
COCc1cc(=O)n2[nH]c(N)nc2n1 | 1% | -5% | 8.9µM* | -7% | -5% | 0%
C(=C1NCCN1)c1cccc2ccccc12 | / | / | -6% | / | / | /
C=CC(=O)N1C/C(=C/c2ccc(F)cc2)C(=O)/C(=C\c2ccc(F)cc2)C1 | / | -40% | 10µM* | / | 1% | /
CN1C2CCC1/C(=C\c1ccc(F)cc1)C(=O)/C2=C/c1ccc(F)cc1 | -7% | -27% | 6% | -9% | -1% | 1%
Nc1ccc(/C=C/c2ccc(N)cc2S(=O)(=O)O)c(S(=O)(=O)O)c1 | / | / | 11µM* | / | / | /
Cc1c(O)ccc(NC(=O)/C=C/c2ccccc2)c1C | -27% | -10% | 18µM* | -9% | -1% | 4%
NC(N)=NCCCC(N)C(=O)O (configuration not stated) | / | / | -6% | / | / | /
CN1CCN(S(=O)(=O)c2ccc(N3CCN(c4ccc(O)cc4)CC3)c([N+](=O)[O-])c2)CC1 | / | i | 8.9µM* | -4% | 0% | 4%
O=[N+]([O-])c1cc(S(=O)(=O)Nc2ccccc2)ccc1N1CCN(c2ccc(O)cc2)CC1 | 1% | -9% | -4% | -2% | 2% | -1%
COc1ccc(/C=N/N(Cc2ccccc2)c2ccccc2)cc1O | -12% | -5% | 16µM* | 0% | 2% | 5%
COc1ccc(/C=C2\CCc3c2nc2ccccc2c3C(=O)O)cc1OC | -28% | -19% | 11µM* | 6% | 1% | 2%
COc1ccc(/C=C2\CCCc3c2nc2ccccc2c3C(=O)O)cc1OC | -1% | / | / | ? | / | ?
O=C(O)c1ccc2c(c1)C(=O)/C(=C\c1ccco1)C2=O | 2% | -40% | 11µM* | 6% | -5% | 3%
O=C(O)c1ccc2c(c1)C(=O)/C(=C/c1ccccc1)C2=O | -2% | -3% | 7.1µM* | 7% | -9% | 4%
CCOC(=O)c1c(NC(=O)c2cc3nc(-c4ccccc4)cc(C(F)(F)F)n3n2)sc2c1CCC(C)C2 (configuration not stated) | -1% | i | -21% | / | / | /
COCC1=C(C(=O)OC(C)OC(=O)OC(C)C)N2C(=O)C(NC(=O)/C(=N\OC)c3csc(N)n3)C2SC1 (configuration not stated) | / | / | -2% | / | / | /
CCc1ccc(C2c3c(-c4ccccc4)n[nH]c3C(=O)N2c2ccc(C(=O)O)cc2)cc1 (configuration not stated) | 4% | -21% | 16µM* | / | / | /
O=C(O)c1ccc(N2C(=O)c3[nH]nc(-c4ccccc4)c3C2c2ccccc2)cc1 (configuration not stated) | 0% | -56% | ? | -6% | -3% | 0%
Cc1ccc(-c2n[nH]c3c2C(c2ccccc2Cl)N(c2ccc(C(=O)O)cc2)C3=O)cc1 (configuration not stated) | 23% | -79% | 7.1µM* | / | / | /
CCC(=O)OC1CCC2C3CCc4cc(O)ccc4C3CCC12C (configuration not stated) | / | / | -4% | / | / | /
